Results as given in PMC8900822 (Acta Crystallographica. Section D, Structural Biology, 2022).
Where “and” joins values, the source holds several entries; their conditions need not be identical. Identical values can stand only once.

Assays:
SazCA = SazCA over hCA I

Nc1cc(C(Cl)=C(Cl)Cl)c(S(N)(=O)=O)cc1S(N)(=O)=O [Clorsulon, 4-Amino-6-(1,2,2-trichlorovinyl)benzene-1,3-disulfonamide]
SI (hCA I/SmCA) (SmCA): 20 and 20.09
selectivity index (SI) with respect to hCA I (SazCA): 580 fold
